The term IC50 denotes the concentration that gives 50% inhibition. Higher therefore signals weaker potency.

This note sets out measurements from ChEMBL document CHEMBL1140569, “Synthesis and structure-activity relationships of thieno[2,3-b]pyrroles as antagonists of the GnRH receptor” (Bioorg Med Chem Lett, 2007).

The target of this assay is T1, Gonadotropin-releasing hormone receptor (Rattus norvegicus, UniProt P30969).
T1 sequence (P30969 whole entry): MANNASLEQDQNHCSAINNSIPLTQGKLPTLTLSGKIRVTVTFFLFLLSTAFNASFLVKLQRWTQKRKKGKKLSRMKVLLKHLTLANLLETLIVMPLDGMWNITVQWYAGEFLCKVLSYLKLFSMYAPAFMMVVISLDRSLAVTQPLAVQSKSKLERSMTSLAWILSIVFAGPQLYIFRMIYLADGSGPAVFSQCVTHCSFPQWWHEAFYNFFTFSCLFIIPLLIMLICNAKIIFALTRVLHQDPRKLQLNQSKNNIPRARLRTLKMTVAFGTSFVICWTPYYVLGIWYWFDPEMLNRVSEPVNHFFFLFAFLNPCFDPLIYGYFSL
Put plainly: Displacement of [125I]D-Trp from rat GnRH receptor. Background: Loss of bound radioactivity is the signal in a displacement assay; it reports binding, not function.

The compound `Cc1cc(C)cc(-c2[nH]c3sc(C(C)(C)C(=O)N4C5CCC4CC5)cc3c2C(=O)CN2CCN(CC(=O)N3CCCC3)CC2)c1` came in with an IC50 of 101 nM.
